Results as given in US20250221953A1 (The University of Chicago, priority 2022, published 2025).

System: Jurkat T cells
Format: cell-based, human
Conditions: IL-2 production level in treated group compared to control group; 48 hours treatment, then anti-CD3/anti-CD28 12 hours
From the text: Two preliminary screens were designed and performed.
To construct “blood chemical compound library for cell-based screening purposes, components such as antibodies that are difficult to distinguish due to a wide variety, and some supplements that only function at a whole organism level including fish oils and herbs were excluded. Physiological ranges of serum levels of individual blood chemicals are available in the human metabolome database (https://hmdb.ca/) and applied in the experimental design. For first screen 1a, Jurkat T cells were treated with blood chemical library for 48 hours and then activated with 2.5 μg/mL anti-CD3 and 0.5 μg/mL anti-CD28 antibodies for another 12 hours, followed by measurement of IL-2 level in medium supernatant using ELISA kit (Biolegend). For first screen 1b, 1×10^5 PD-1^+ Jurkat T cells were co-cultured with 2×10^4 H596 (PD-L1^+) cells in a well of 96-well plate for 60 hours, and then activated with 2.5 μg/mL anti-CD3 and 0.5 μg/mL anti-CD28 antibodies for another 12 hours, followed by measurement of IL-2 level in medium supernatant using ELISA kit.

Substance	Relative changed percentage (%)
ALBUMIN HUMAN	38.34%
CHORIONIC GONADOTROPIN HUMAN [CHORIONIC GONADOTROPIN HUMAN,]	26.68%
